# From PubChem BioAssay AID1468 (National Center for Advancing Translational Sciences (NCATS), 2008)
# By UniProt entry, the sequences of proteins in these tests, tags left out.
# UniProt P10636, whole entry, looked up: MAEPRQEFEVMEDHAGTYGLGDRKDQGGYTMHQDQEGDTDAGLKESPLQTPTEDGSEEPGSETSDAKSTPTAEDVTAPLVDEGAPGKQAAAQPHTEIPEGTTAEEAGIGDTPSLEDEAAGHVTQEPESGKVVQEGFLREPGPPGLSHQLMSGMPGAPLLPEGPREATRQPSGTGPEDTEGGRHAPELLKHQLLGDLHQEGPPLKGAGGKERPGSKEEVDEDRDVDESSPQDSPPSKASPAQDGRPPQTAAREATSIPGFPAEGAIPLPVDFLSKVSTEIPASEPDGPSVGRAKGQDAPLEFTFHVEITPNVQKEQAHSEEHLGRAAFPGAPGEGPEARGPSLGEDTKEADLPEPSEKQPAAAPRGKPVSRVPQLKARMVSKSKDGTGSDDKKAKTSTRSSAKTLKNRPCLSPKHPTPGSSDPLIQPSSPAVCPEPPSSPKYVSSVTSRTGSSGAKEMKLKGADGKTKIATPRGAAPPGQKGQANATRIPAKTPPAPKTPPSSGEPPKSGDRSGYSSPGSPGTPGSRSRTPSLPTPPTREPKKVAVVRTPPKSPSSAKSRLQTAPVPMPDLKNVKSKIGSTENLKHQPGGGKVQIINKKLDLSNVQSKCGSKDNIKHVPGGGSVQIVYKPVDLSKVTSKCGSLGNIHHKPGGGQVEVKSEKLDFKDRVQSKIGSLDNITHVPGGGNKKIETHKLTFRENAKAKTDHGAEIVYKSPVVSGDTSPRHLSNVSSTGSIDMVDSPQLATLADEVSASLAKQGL
# The entries are a selection whose mix differs from that of the whole data set. Results filed as inconclusive are left out. A call without a number means that no potency is given here. Activity calls are given as the source filed them. The call rests on the fitted dose curve; in most records, active means well fitted inhibition curve with a large enough effect; inconclusive means small, poorly fitted or top-dose-only effect, or effect the other way; inactive means flat fitted curve, though single readings scatter.
# Target: Microtubule-associated protein tau (Homo sapiens) (UniProt P10636)
# Assay: qHTS for Inhibitors of Tau Fibril Formation, Fluorescence Polarization; further: nearly all actives have a fitted effect of over 55% in size
# Settings: K18 P301L tau heparin fibrillization, Alexa594 FP, 6 h; series mostly up to 57.7 µM
# Excerpt: NIH Molecular Libraries Probe Production Network [MLPCN]
# NIH Chemical Genomics Center [NCGC]
# Assay Provider: Carlo Ballatore, University of Pennsylvania
# The microtubule-associated protein tau is an abundant protein in the axons of neurons that stabilizes microtubules. With its ability to modulate microtubule dynamics, tau contributes directly or indirectly, to key structural and regulatory cellular functions. Particularly important is the influence tau exerts on axonal transport, which allows signaling molecules, trophic factors and other essential cellular constituents to travel along the axons. Under pathological conditions, tau becomes sequestered into insoluble aggregates called neurofibrillary tangles. This phenomenon is believed to have pathological consequences by promoting axonal transport deficits that ultimately lead to synaptic dysfunction and neuronal loss. To identify inhibitors of tau aggregation, a heparin-induced tau fibril formation assay was used that employed a recombinantly expressed fragment of tau, K18 (Q242-E372), bearing a P301L mutation (Gustke et al. 1994; Hong et al. 1998).
# Gustke, N., B. Trinczek, et al. (1994). "Domains of tau protein and interactions with microtubules." Biochemistry 33(32): 9511-22.
# Hong, M., V. Zhukareva, et al. (1998).
# Li, W. and V. M. Lee (2006). "Characterization of two VQIXXK motifs for tau fibrillization in vitro." Biochemistry 45(51): 15692-701.
# von Bergen, M., S. Barghorn, et al. (2001). "Mutations of tau protein in frontotemporal dementia promote aggregation of paired helical filaments by enhancing local beta-structure." J Biol Chem 276(51): 48165-74.
# NCGC Assay Protocol Summary:
# For screening, 2 uL/well human K18 P301L (15 uM unlabeled and 0.24 uM Alexa 594-labeled tau final concentrations) in reagent buffer (100 mM sodium acetate pH 7) was dispensed into black solid 1536-well plates (Grenier) using a solenoid-based dispenser. Following transfer of 23 nL compound or DMSO vehicle by a pin tool, 2 uL/well heparin (20 uM final concentration) in reagent buffer was added and the plate centrifuged 15 s at 1000 RPM. Plates were incubated 6 hr at 37 C and then 1 uL/well ThT (30 uM final concentration) was added. After a 1 hr ambient incubation, the plates were read by an Envision (Perkin Elmer) to monitor Alexa 594 FP (555 nm excitation and 632 nm emission).
# Keywords: NIH Roadmap, MLPCN, MLI, MLSMR, NCGC, qHTS, tau, tauopathies, Alzheimer's disease, fibril, neurodegeneration, aggregation
# Potency means the concentration at half of the fitted maximal effect.
row,SMILES,Potency
1,CC(C)c1ccc(OP(=O)(Nc2ccccn2)Oc2ccccc2F)cc1 (stereo not given),inactive
2,ClCCSc1nnc(-c2cccnc2)o1,inactive
3,CCN(CC)C(=S)SC(NC=O)C(Cl)(Cl)Cl (stereo not given),inactive
4,CC(C)NC(=O)NP(=O)(Oc1ccccc1)Oc1ccccc1,inactive
5,O=[N+]([O-])c1cc([N+](=O)[O-])c(-c2ccn[nH]2)s1,inactive
6,O=[As](O)(c1ccc(O)cc1)c1ccccc1O,inactive
7,C[As](=O)(O)c1cccc(C(=O)O)c1,inactive
8,Cc1ccc2nc3c(c(C)c2c1)CC(C(Cl)Cl)S3 (stereo not given),inactive
9,Cc1ccc(OP(=O)(Nc2ccc([N+](=O)[O-])cn2)Oc2ccc(C)cc2)cc1,inactive
10,COc1ccc(N/C(=N/P(=O)(N2CCOCC2)N2CCOCC2)N2CCOCC2)cc1,inactive
11,O=C(OC1CN2CCC1CC2)C12CC3CC(CC(C3)C1)C2 (stereo not given),inactive
12,Cc1cc(=O)[nH]c(N[N+](=O)[O-])n1,inactive
13,Cc1c2c(nc3ccccc13)SC(C(Cl)Cl)C2 (stereo not given),inactive
14,COc1cc(I)ccc1[As](=O)(O)O,inactive
15,CCOC(=O)c1ccc(NC(=O)C(C)(CCl)SC)cc1 (stereo not given),inactive
16,CCC(C)N(CC(C)C)C(=S)SC(NC(C)=O)C(Cl)(Cl)Cl (stereo not given),inactive
17,COP1(=S)c2c(C)nn(CCC#N)c2N=C(c2ccc(F)cc2)N1C (stereo not given),inactive
18,O=C(COc1ccccc1)OC1CN2CCC1CC2 (stereo not given),inactive
19,CCOC(=O)Nc1cccc([As](=O)(O)O)c1,inactive
20,O=[N+]([O-])c1ccc(Nc2ccc(Oc3ccc([N+](=O)[O-])cc3[N+](=O)[O-])cc2)c([N+](=O)[O-])c1,inactive
21,Cc1cc(SC(NC=O)C(Cl)(Cl)Cl)ncn1 (stereo not given),inactive
22,O=P(Nc1ccccn1)(c1cccc2ccccc12)c1cccc2ccccc12,inactive
23,CCOC(=O)Nc1ccc([As](=O)(O)O)c(O)c1,inactive
24,O=P1(Nc2ncccn2)COc2ccccc2OC1,inactive
25,O=P1(Nc2ccc(Br)cn2)COc2ccccc2OC1,inactive
26,O=[As](O)(c1cccs1)c1cccs1,inactive

row,SMILES,Potency
1,Cc1ccc(OCC(=O)OC2CN3CCC2CC3)cc1 (stereo not given),inactive
2,Nc1cccc([As](=O)(O)c2ccccc2)c1,inactive
3,Cc1nn(-c2ccccc2)c2c1P(=O)(N1CCOCC1)N(C)C(c1ccccc1)=N2 (stereo not given),inactive
4,CC1CCC(C(C)C)C(OP(=O)(Nc2ccccn2)c2ccccc2)C1 (stereo not given),inactive
5,O=C(/C=C/c1ccccc1)OC1CN2CCC1CC2 (stereo not given),inactive
6,CN(C)C1(CNC(=O)c2ccc(S(C)(=O)=O)cc2)CCCCC1,inactive
7,O=[As](O)(c1ccccc1Br)c1ccccc1Br,inactive
8,CN(C(=O)Cc1ccc(Cl)c(Cl)c1)[C@@H]1CCCC[C@H]1N1CCCC1,inactive
9,CC(C)/C=N\N=C(\N)N[N+](=O)[O-],inactive
10,CN(CCCl)Cc1cc(Cl)c(NC2=NCCN2)c(Cl)c1,inactive
11,CCOP(=O)(Nc1ccc(C)cn1)OCC,inactive
12,O=P1(Nc2ccccn2)COc2ccccc2OC1,inactive
13,Clc1n[nH]nc1-c1nn[nH][15n]1,inactive
14,CC(C)(C)C(=O)NC(Sc1ncccn1)C(Cl)(Cl)Cl (stereo not given),inactive
15,Nc1cccc2c([As](=O)(O)O)cccc12,inactive
16,Cc1ccc(NCCc2c([N+](=O)[O-])cc([N+](=O)[O-])cc2[N+](=O)[O-])cc1,inactive
17,COc1cc(C2NCCC3(OCCO3)C2(C)C)cc(OC)c1OC (stereo not given),inactive
18,CCOP(=O)(Nc1cccc2ccccc12)OCC,inactive
19,COc1cc(C(=O)NCC2(N3CCOCC3)CCCCC2)cc(Cl)c1OC(C)C,inactive
20,O=[As](O)(O)c1cccnc1,inactive
21,O=C(OC1CN2CCC1CC2)c1ccc(Cl)cc1 (stereo not given),inactive
22,CN(C(=O)Cc1ccc(Cl)c(Cl)c1)[C@@H]1CC[C@]2(CCCO2)C[C@H]1N1CCCC1,inactive
23,O=[As](O)(c1cccc(O)c1)c1cccc(O)c1,inactive
24,Cc1cccc(OCC(=O)OC2CN3CCC2CC3)c1 (stereo not given),inactive
25,NC(=O)Nc1ccc([As](=O)(O)O)cc1,inactive
26,O=[N+]([O-])CC(O)c1ccc([N+](=O)[O-])cc1 (stereo not given),inactive

row,SMILES,Potency
1,O=[N+]([O-])c1ccc2c(c1)nnn2O,inactive
2,CCOP1(=S)c2c(C)nn(CCC#N)c2N=C(c2ccc(F)cc2)N1C (stereo not given),inactive
3,CN(C(=O)Cc1ccccc1)[C@@H]1CC[C@]2(CCCO2)C[C@H]1N1CCCC1,inactive
4,CS(=O)(=O)c1cc([N+](=O)[O-])c2no[n+]([O-])c2c1,active: 14.1 µM
5,CCOP1(=S)c2c(C)nn(CCC#N)c2N=C(c2ccccc2F)N1C (stereo not given),inactive
6,O=P(Nc1nccs1)(c1ccccc1)c1nc2ccccc2s1 (stereo not given),inactive
7,O=P(Nc1nccs1)(Oc1ccccc1)Oc1ccccc1,inactive
8,O=C(O)COc1ccc([As](=O)(O)O)cc1[N+](=O)[O-],inactive
9,Nc1ccccc1[As](=O)(O)c1ccccc1,inactive
10,COC(=O)c1cc2c(s1)N=C(c1ccccc1)N(C)P2(=O)N1CCOCC1 (stereo not given),inactive
11,Cc1ccc(OP(=O)(Nc2ccccn2)Oc2ccc(C)cc2)cc1,inactive
12,CC(=O)NC(SC(=S)N(CC(C)C)CC(C)C)C(Cl)(Cl)Cl (stereo not given),inactive
13,CN(C(=O)Cc1ccc(Cl)c(Cl)c1)[C@@H]1CCCC[C@@H]1N1CCCC1,inactive
14,CCC(=O)N1C2C3N(C(=O)CC)C1C1N(C(=O)CC)C(C(N1C(=O)CC)N3C(=O)CC)N2C(=O)CC,inactive
15,Cc1ccccc1OP(=O)(Nc1ccccn1)Oc1ccccc1C,inactive
16,CN(C)C(=O)Oc1noc2ccccc12,inactive
17,O=c1c2cc([N+](=O)[O-])ccc2[nH]c2c([N+](=O)[O-])cc([N+](=O)[O-])cc12,inactive
18,O=C(NC1CCS(=O)(=O)C1)NP(=S)(Oc1ccccc1)Oc1ccccc1 (stereo not given),inactive
19,CCNC(=S)/N=C(\N)N[N+](=O)[O-],inactive
20,c1ccc(-c2nn[nH]n2)c(-c2nn[nH]n2)c1,inactive
21,CCOC(=O)NC(Sc1ccccc1)C(Cl)(Cl)Cl (stereo not given),inactive
22,Cc1ccc(NP(=O)(Oc2cccc(C)c2)Oc2cccc(C)c2)nc1,inactive
23,C[C@@H]1C=CCP(=O)(Oc2ccccc2)O1 (stereo not given in full),inactive
24,C[C@H]1OP(=O)(Oc2ccccc2)C[C@@H]2O[C@@H]21 (stereo not given in full),inactive
25,CC(=O)Nc1ccc([As](=O)(O)O)c(O)c1,inactive
26,CC(=O)Nc1ccc(Oc2c([N+](=O)[O-])cc([N+](=O)[O-])cc2[N+](=O)[O-])cc1,inactive

row,SMILES,Potency
1,O=P1(Nc2nc3ccc(Cl)cc3s2)COc2ccccc2O1 (stereo not given),inactive
2,CCOc1ccc(C2=NCC(CBr)S2)cc1 (stereo not given),inactive
3,CC(C)(C)C(=O)NC(Sc1ccccc1)C(Cl)(Cl)Cl (stereo not given),inactive
4,O=P(Nc1nccs1)(c1ccccc1)c1ccccc1,inactive
5,CC(C)C(=O)NC(Sc1ccccc1)C(Cl)(Cl)Cl (stereo not given),inactive
6,c1nnnn1CCn1cnnn1,inactive
7,O=[N+]([O-])c1ncn(CCn2cnc([N+](=O)[O-])n2)n1,inactive
8,CC(=O)NC(SC(=S)N(C)C)C(Cl)(Cl)Cl (stereo not given),inactive
9,O=[As](O)(c1ccccc1)c1ccc(O)cc1,inactive
10,Nc1ccc([As](=O)(O)c2ccc([N+](=O)[O-])cc2)cc1,inactive
11,C(Cc1nn[nH]n1)Cc1nn[nH]n1,inactive
12,O=C(OC1CN2CCC1CC2)c1cccc(Cl)c1 (stereo not given),inactive
13,O=P(Nc1ccccn1)(c1ccc(Br)cc1)c1ccc(Br)cc1,inactive
14,O=P(Nc1nc2ccccc2s1)(c1ccccc1)c1ccccc1,inactive
15,C[C@H]1OP(=O)(Oc2ccccc2)[C@H](O)[C@H](O)[C@H]1N=[N+]=[N-] (stereo not given in full),inactive
16,CN(C(=O)Cc1ccccc1)[C@H]1CC[C@@]2(CCCO2)C[C@@H]1N1CCCC1,inactive
17,CC(C)(C)C(=O)NC(Sc1ccncn1)C(Cl)(Cl)Cl (stereo not given),inactive
18,O=[N+]([O-])c1ncn(CCn2ncnc2[N+](=O)[O-])n1,inactive
19,O=[N+]([O-])c1cccc(NC2=NCC(CBr)S2)c1 (stereo not given),inactive
20,O=C(O)CNc1ccc([As](=O)(O)O)cc1,inactive
21,O=C(Nc1cc([As](=O)(O)O)ccc1O)c1ccccc1,inactive
22,Nc1ccc([As](=O)(O)c2ccc(N)cc2)cc1,inactive
23,C[N+]1=C2C=CC=CC=C2SC12C([N+](=O)[O-])=CC([N+](=O)[O-])=C[C-]2[N+](=O)[O-] (stereo not given),inactive
24,CCN(/C(=N/P(=O)(N1CCOCC1)N1CCOCC1)N1CCOCC1)c1ccc(OC)cc1,inactive
25,CC(C)=N/N=C(\N)N[N+](=O)[O-],inactive
26,CN(C)C(=O)OCCc1n(C)cc[n+]1C,inactive

row,SMILES,Potency
1,CC1CCN(C(=O)Oc2c(Cl)cc(Cl)c3cccnc23)CC1,inactive
2,CC(=O)C1=CCCC2CCC1N2 (stereo not given),inactive
3,CC(=O)N1C2C3N(C(C)=O)C1C1N(C(C)=O)C(C(N1C(C)=O)N3C(C)=O)N2C(C)=O,inactive
4,O=[N+]([O-])c1cccc2n[nH]nc12,inactive
5,Cc1ccc(NP(=O)(Oc2ccccc2)Oc2ccccc2)nc1,inactive
6,O=[N+]([O-])c1cc([N+](=O)[O-])c(CCNc2ccccc2)c([N+](=O)[O-])c1,inactive
7,CCc1nc2c(n1)c1c(non1O)c1c2no[n+]1[O-],inactive
8,CC(C)CC(=O)NC(Sc1ccc(Cl)cc1)C(Cl)(Cl)Cl (stereo not given),inactive
9,Nc1cc(N)c2nonc2c1[N+](=O)[O-],inactive
10,Oc1ccccc1CNc1ccccn1,inactive
11,Cc1c2non([O-])c-2c(C)[n+](=O)[n+]1[O-],active: 28.2 µM
12,O=C(NC(Sc1ccncn1)C(Cl)(Cl)Cl)c1ccccc1 (stereo not given),inactive
13,NC(=O)c1cc([N+](=O)[O-])cc([N+](=O)[O-])c1N,inactive
14,Cc1ccc(N/C(=N/P(=O)(N2CCOCC2)N2CCOCC2)N2CCOCC2)cc1,inactive
15,COc1ccccc1OP(=O)(Nc1ccc(C)cn1)Oc1ccccc1OC,inactive
16,Cc1ccc(OP(=O)(Nc2nccs2)Oc2ccc(C)cc2)cc1,inactive
17,Clc1ccc(Cl)c(NC2=NCC(CBr)S2)c1 (stereo not given),inactive
18,CN1CCCC(OC(=O)C(c2ccccc2)c2ccccc2)C1 (stereo not given),inactive
19,CCN(N=Nc1nonc1N)c1nonc1N,inactive
20,Nc1cccc2ccc([As](=O)(O)O)cc12,inactive
21,CC(=O)Nc1ccc([As](=O)(O)O)cc1,inactive
22,O=P(Nc1nc2ccc(Cl)cc2s1)(c1ccccc1)c1ccccc1,inactive
23,CCOP(=O)(Nc1ccccc1)OCC,inactive
24,Cc1cc(SC(NC(=O)c2ccc(F)cc2)C(Cl)(Cl)Cl)ncn1 (stereo not given),inactive
25,CN(C(=O)Cc1ccc(Cl)c(Cl)c1)[C@H]1CCCC[C@@H]1N1CCCC1,inactive
26,Cc1ccc(NP(=O)(Oc2ccccc2F)Oc2ccccc2F)nc1,inactive
